Experimental data: paper PMC8335659

B1: GluA1 [mouse (endogenous in cultured hippocampal neurons)] / FLAG-tagged μ2 [mouse] (parent)
chain 1: ANFPNNIQIGGLFPNQQSQEHAAFRFALSQLTEPPKLLPQIDIVNISDSFEMTYRFCSQFSKGVYAIFGFYERRTVNMLTSFCGALHVCFITPSFPVDTSNQFVLQLRPELQEALISIIDHYKWQTFVYIYDADRGLSVLQRVLDTAAEKNWQVTAVNILTTTEEGYRMLFQDLEKKKERLVVVDCESERLNAILGQIVKLEKNGIGYHYILANLGFMDIDLNKFKESGANVTGFQLVNYTDTIPARIMQQWRTSDARDHTRVDWKRPKYTSALTYDGVKVMAEAFQSLRRQRIDISRRGNAGDCLANPAVPWGQGIDIQRALQQVRFEGLTGNVQFNEKGRRTNYTLHVIEMKHDGIRKIGYWNEDDKFVPAATDAQAGGDNSSVQNRTYIVTTILEDPYVMLKKNANQFEGNDRYEGYCVELAAEIAKHVGYSYRLEIVSDGKYGARDPDTKAWNGMVGELVYGRADVAVAPLTITLVREEVIDFSKPFMSLGISIMIKKPQKSKPGVFSFLDPLAYEIWMCIVFAYIGVSVVLFLVSRFSPYEWHSEEFEEGRDQTTSDQSNEFGIFNSLWFSLGAFMQQGCDISPRSLSGRIVGGVWWFFTLIIISSYTANLAAFLTVERMVSPIESAEDLAKQTEIAYGTLEAGSTKEFFRRSKIAVFEKMWTYMKSAEPSVFVRTTEEGMIRVRKSKGKYAYLLESTMNEYIEQRKPCDTMKVGGNLDSKGYGIATPKGSALRGPVNLAVLKLSEQGVLDKLKSKWWYDKGECGSKDSGSKDKTSALSLSNVAGVFYILIGGLGLAMLVALIEFCYKSRSESKRMKGFCLIPQQSINEAIRTSTLPRNSGAGASGGSGSGENGRVVSQDFPKSMQSIPCMSHSSGMPLGATGL
chain 2: MIGGLFIYNHKGEVLISRVYRDDIGRNAVDAFRVNVIHARQQVRSPVTNIARTSFFHVKRSNIWLAAVTKQNVNAAMVFEFLYKMCDVMAAYFGKISEENIKNNFVLIYELLDEILDFGYPQNSETGALKTFITQQGIKSQHQTKEEQSQITSQVTGQIGWRREGIKYRRNELFLDVLESVNLLMSPQGQVLSAHVSGRVVMKSYLSGMPECKFGMNDKIVIEKQGKGTADETSKSGKQSIAIDDCTFHQCVRLSKFDSERSISFIPPDGEFELMRYRTTKDIILPFRVIPLVREVGRTKLEVKVVIKSNFKPSLLAQKIEVRIPTPLNTSGVQVICMKGKAKYKASENAIVWKIKRMAGMKESQISAEIELLPTNDKKKWARPPISMNFEVPFAPSGLKVRYLKVFEPKLNYSDHDVIKWVRYIGRSGIYETRC
B2: GluA1 [mouse (endogenous in cultured hippocampal neurons)] / stargazin [not stated] (parent)
chain 1: B1 chain 1
chain 2: MGLFDRGVQMLLTTVGAFAAFSLMTIAVGTDYWLYSRGVCKTKSVSENETSKKNEEVMTHSGLWRTCCLEGNFKGLCKQIDHFPEDADYEADTAEYFLRAVRASSIFPILSVILLFMGGLCIAASEFYKTRHNIILSAGIFFVSAGLSNIIGIIVYISANAGDPSKSDSKKNSYSYGWSFYFGALSFIIAEMVGVLAVHMFIDRHKQLRATARATDYLQASAITRIPSYRYRYQRRSRSSSRSTEPSHSRDASPVGVKGFNTLPSTEISMYTLSRDPLKAATTPTATYNSDRDNSFLQVHNCIQKDSKDSLHANTANRRTTPV
B3: GluA1 [mouse (endogenous in cultured hippocampal neurons)] / FLAG-tagged μ3 [mouse] (parent)
chain 1: B1 chain 1
chain 2: MIHSLFLINCSGDIFLEKHWKSVVSQSVCDYFFEAQEKAADVENVPPVISTPHHYLISIYRDKLFFVSVIQTEVPPLFVIEFLHRVADTFQDYFGECSEAAIKDNVVIVYELLEEMLDNGFPLATESNILKELIKPPTILRSVVNSITGSSNVGDTLPTGQLSNIPWRRAGVKYTNNEAYFDVVEEIDAIIDKSGSTVFAEIQGVIDACIKLSGMPDLSLSFMNPRLLDDVSFHPCIRFKRWESERVLSFIPPDGNFRLISYRVSSQNLVAIPVYVKHSISFKENSSCGRFDITIGPKQNMGKTIEGITVTVHMPKVVLNMNLTPTQGSYTFDPVTKVLAWDVGKITPQKLPSLKGLVNLQSGAPKPEENPNLNIQFKIQQLAISGLKVNRLDMYGEKYKPFKGVKYVTKAGKFQVRT

Variants of: B1
Assay: coimmunoprecipitation (IP anti-GluA1, IB FLAG), band intensity quantified
Conditions: with FLAG-tagged μ2 [mouse]; HEK293 cells coexpressing STG, GluA1 mutant and FLAG-µ2; normalised to GluA1DDDD = 100; n = 4; n.s.; read off a plot

Row | screen value (% of GluA1DDDD) | Variant
1 | 93 | chain 1 S816A S818A S831A S845A

Same assay, conditions: with FLAG-tagged μ2 [mouse]; HEK293 cells coexpressing STG, GluA1 mutant and FLAG-µ2; this bar is the normalisation reference (set to 100); n = 4; read off a plot

Row | screen value (% of GluA1DDDD) | Variant
2 | 100 | chain 1 S816D S818D S831D S845D

Variants of: B2
Assay: coimmunoprecipitation (IP anti-GluA1, IB STG), band intensity quantified
Conditions: with stargazin; HEK293 cells coexpressing STG, GluA1 mutant and FLAG-µ3; bottom right chart; this bar is the normalisation reference (100); read off a plot

Row | screen value | Variant
3 | 100 | chain 1 S816D S818D S831A S845A
4 | 100 | chain 1 S816D S818D S831D S845D
5 | 100 | chain 1 S816D S818D

Same assay, conditions: with stargazin; HEK293 cells coexpressing STG, GluA1 mutant and FLAG-µ2; bottom right chart; GluA1DDDD bar = 100; n.s.; read off a plot

Row | screen value | Variant
6 | 110 | chain 1 S816A S818A S831A S845A

Same assay, conditions: with stargazin; HEK293 cells coexpressing STG, GluA1 mutant and FLAG-µ3; bottom right chart; GluA1DDDD bar = 100; n.s.; read off a plot

Row | screen value | Variant
7 | 95 | chain 1 S816A S818A S831A S845A

Same assay, conditions: with stargazin; HEK293 cells coexpressing STG, GluA1 mutant and FLAG-µ3; bottom right chart; GluA1DDAA bar = 100; n.s.; read off a plot

Row | screen value | Variant
8 | 83 | chain 1 S816A S818A S831D S845D

Same assay, conditions: with stargazin; HEK293 cells coexpressing STG, GluA1 mutant and FLAG-µ2; bottom right chart; this bar is the normalisation reference (100); read off a plot

Row | screen value | Variant
9 | 100 | chain 1 S816D S818D S831D S845D

Same assay, conditions: with stargazin; HEK293 cells coexpressing STG, GluA1 mutant and FLAG-µ3; bottom right chart; GluA1DD bar = 100; n.s.; read off a plot

Row | screen value | Variant
10 | 120 | chain 1 S816A S818A

Variants of: B3
Assay: coimmunoprecipitation (IP anti-GluA1, IB FLAG), band intensity quantified
Conditions: with FLAG-tagged μ3 [mouse]; HEK293 cells coexpressing STG, GluA1 mutant and FLAG-µ3; this bar is the normalisation reference (set to 100); n = 4; read off a plot

Row | screen value (% of GluA1DDDD) | Variant
11 | 100 | chain 1 S816D S818D S831D S845D

Same assay, conditions: with FLAG-tagged μ3 [mouse]; HEK293 cells coexpressing STG, GluA1 mutant and FLAG-µ3; this bar is the normalisation reference (set to 100); n = 5; read off a plot

Row | screen value | Variant
12 | 100 % of GluA1DD | chain 1 S816D S818D

Same assay, conditions: with FLAG-tagged μ3 [mouse]; HEK293 cells coexpressing STG, GluA1 mutant and FLAG-µ3; this bar is the normalisation reference (set to 100); n = 6; read off a plot

Row | screen value (% of GluA1DDAA) | Variant
13 | 100 | chain 1 S816D S818D S831A S845A

Same assay, conditions: with FLAG-tagged μ3 [mouse]; HEK293 cells coexpressing STG, GluA1 mutant and FLAG-µ3; normalised to GluA1DD = 100; n = 5; p < 0.01; read off a plot

Row | screen value | Variant
14 | 150 % of GluA1DD | chain 1 S816A S818A

Same assay, conditions: with FLAG-tagged μ3 [mouse]; HEK293 cells coexpressing STG, GluA1 mutant and FLAG-µ3; normalised to GluA1DDDD = 100; n = 4; p < 0.05; read off a plot

Row | screen value (% of GluA1DDDD) | Variant
15 | 150 | chain 1 S816A S818A S831A S845A

Same assay, conditions: with FLAG-tagged μ3 [mouse]; HEK293 cells coexpressing STG, GluA1 mutant and FLAG-µ3; normalised to GluA1DDAA = 100; n = 6; p < 0.05; read off a plot

Row | screen value (% of GluA1DDAA) | Variant
16 | 130 | chain 1 S816A S818A S831D S845D
